Experimental data as given in PubChem BioAssay (Tox21).
“And” between values parts separate entries of the source, which are not always exact repeats. Identical values can stand only once. This is a selection; strong and weak results do not stand in their true shares. Records with an inconclusive call do not appear. The source made the active and inactive calls. Calls follow the shape of the full dose curve.

Test: p53 small molecule agonists, cell-based qHTS assay with human liver microsomes (AID 1963577);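 also: p53 response element beta-lactamase reporter cells with liver microsomes plus NADPH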
Conditions: HCT-116 p53RE-bla with human liver microsomes, ratio, 16 h; at 30.3 µM (top of the series)
Excerpt: National Center for Advancing Translational Sciences [NCATS]
Division of Preclinical Innovation [DPI]
U.S. Environmental Protection Agency [EPA]
National Institutes of Environmental Health Sciences [NIEHS]
National Toxicology Program [NTP]
U.S. Food and Drug Administration [FDA]
p53, a tumor suppressor protein, is activated following cellular insult, including DNA damage and other cellular stresses. The activation of p53 regulates cell fate by inducing DNA repair, cell cycle arrest, apoptosis, or cellular senescence. The activation of p53, therefore, is a good indicator of DNA damage and other cellular stresses. […] The activation of the reporter gene under culture conditions can be detected by fluorescence intensity.
Tox21 Assay Protocol Summary:
The p53RE-bla cells were dispensed at 4,000cells/3ul/well in 1536-well black-clear bottom plates. After the assay plates were incubated at 37 C, 5% CO2 incubator for 5 hours, 23 nL of compounds dissolved in DMSO, positive controls or DMSO only was transferred to the assay plate. Following compound addition, 3 uL of human liver microsomes (XenoTech, Kansas City, KS) at final concentration of 0.5 mg/mL and 1uL of Beta-Nicotinamide adenine dinucleotide 2-phosphate (NADPH) at final concentration of 0.5 mg/mL were transferred to the assay plate. The plates were incubated at 37 C for 16 hours. 1 uL of LiveBLAzer detection mixture was added to each well and the plates were incubated at room temperature in the dark for 2 h.
% is scaled to controls: 0 for no effect and ±100 for the full control effect.

Structure (SMILES) | activation
OCCSCCO | inactive: -0.368%

Same assay, conditions: HCT-116 p53RE-bla with human liver microsomes, ratio, 16 h; at 66 µM (top of the series)

Structure (SMILES) | activation
OCCSCCO | inactive: -0.797%

Same assay, conditions: HCT-116 p53RE-bla with human liver microsomes, ratio, 16 h; at 66 µM (top of the series) unless noted

Structure (SMILES) | activation
Nc1cc([N+](=O)[O-])cc([N+](=O)[O-])c1O | inactive: -2.67%
CC(C)OP(C)(=O)OC(C)C | inactive: -12.7% and inactive: -1.8%
COP(C)(=O)OC | inactive: -2.77% and inactive: -12.1%
CCOP(=O)(CC)OCC | inactive: 2.46%
Cc1cccc([N+](=O)[O-])c1[N+](=O)[O-] | inactive: 6.17% [at 30.3 µM]
C/C1=C2N=C(/C=C3N=C(/C(C)=C4\[N-][C@@](C)([C@@H]5N=C1[C@](C)(CCC(=O)NC[C@@H](C)OP(=O)([O-])O[C@H]1[C@@H](O)[C@@H](n6cnc7cc(C)c(C)cc76)O[C@@H]1CO)[C@H]5CC(N)=O)[C@@](C)(CC(N)=O)[C@@H]4CCC(N)=O)[C@@](C)(CC(N)=O)[C@@H]\3CCC(N)=O)C(C)(C)[C@@H]/2CCC(N)=O.[C-]#N.[Co+3] | inactive: 0.709% [at 30.3 µM]
O=[N+]([O-])OCC(CO[N+](=O)[O-])(CO[N+](=O)[O-])CO[N+](=O)[O-] | inactive: 2.08%
O=[N+]([O-])c1cccc([N+](=O)[O-])c1 | inactive: 0.962%
CCN(CC)CCCl | inactive: 1.86%
N#CBr | inactive: -1.17%
Cc1c([N+](=O)[O-])cccc1[N+](=O)[O-] | inactive: 2.08% and inactive: 0.115%
Cc1ccc([N+](=O)[O-])cc1[N+](=O)[O-] | inactive: -2.47% and inactive: -2.08%
N=C(N)N[N+](=O)[O-] | inactive: 1.22%
Cc1ccc([N+](=O)[O-])c([N+](=O)[O-])c1 | inactive: -16.8% and inactive: 0.344%
CP(=O)(O)OCCC[Si](O)(O)O | inactive: 2.41%
COc1ccc([N+](=O)[O-])cc1[N+](=O)[O-] | inactive: 0.0211%
CCOP(=O)(CC)Oc1ccc([N+](=O)[O-])cc1 (stereo unspecified) | inactive: -0.347% [at 30.3 µM]
CC(C)N(CCO)C(C)C | inactive: -0.412%
CN(C)CCCl | inactive: 2.27%
